Among the data in patent publication US11279734B2, “Solution-phase affinity selection of inhibitors from combinatorial peptide libraries” (Massachusetts Institute of Technology, priority 2017, dated 2022) are Kd values, retold here.

Chains of the proteins cited; added tags and fusions are not shown. Residues count along the entry.
UniProt Q00987, 25-109, looked up: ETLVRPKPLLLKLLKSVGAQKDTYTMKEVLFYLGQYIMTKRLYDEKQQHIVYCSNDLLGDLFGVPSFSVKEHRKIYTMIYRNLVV
UniProt Q00987, whole entry, looked up: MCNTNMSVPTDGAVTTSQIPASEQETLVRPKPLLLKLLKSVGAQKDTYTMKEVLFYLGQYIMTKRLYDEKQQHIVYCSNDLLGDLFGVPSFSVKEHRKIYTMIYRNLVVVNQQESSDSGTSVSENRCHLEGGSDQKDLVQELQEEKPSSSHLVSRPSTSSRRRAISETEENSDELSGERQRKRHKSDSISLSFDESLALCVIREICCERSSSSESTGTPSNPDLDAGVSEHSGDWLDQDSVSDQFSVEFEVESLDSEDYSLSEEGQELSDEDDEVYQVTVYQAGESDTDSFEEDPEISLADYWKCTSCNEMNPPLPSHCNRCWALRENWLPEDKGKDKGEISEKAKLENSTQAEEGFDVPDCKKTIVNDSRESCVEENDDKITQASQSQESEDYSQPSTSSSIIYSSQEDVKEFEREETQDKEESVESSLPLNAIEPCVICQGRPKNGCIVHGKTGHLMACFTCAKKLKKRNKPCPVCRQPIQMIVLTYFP

One may read the Kd as the constant that tells how readily two partners part at equilibrium.

The first assay has as its target SUMO-25-109 MDM2 (Homo sapiens, UniProt Q00987).
Test: not given
As to conditions: biotin labeled peptide immobilized to streptavidin sensors; global fitting of association and dissociation curves. The class given is binding.
“LT(F2f)(Dap)EFWAQ(Cba)(Dap)SAA [peptide 11a-S1]” yielded a Kd of 2.5 nM. “LT(F2f)(R8)EY(Hexa)AQ(Cba)(S5)SAA [peptide 10a-M]” showed a Kd of 5 nM. The substance “LT(F2f)EHY(Hexa)AQ(F3f)TSK [peptide 18a]” yielded a Kd of 7.6 nM. On the same count and under the same terms, the result for LT(F2f)EHY(Hexa)AQ(Ff)TSK [peptide 15a] reads 3.8 nM; that for “LT(F2f)EHY(Hexa)AQ(Homof)TSK [peptide 21a]”, 8.9 nM; that for LT(F2f)EHY(Napa)AQ(Ff)TSK [peptide 28a], 96 nM.

In the case of LT(F2f)EHYWAQ(F2f)TSK [peptide 25a], binding was characterised by a dissociation constant (Kd) of 20 nM. Same read-out and setting: the result for LT(F2f)EHYWAQ(Hexa)TSK [peptide 19a] reads 8 nM. “LT(F3f)EHY(Anta)AQ(Cba)TSK [peptide 22a]”: binding was put at a Kd of 10 nM. The Kd values of the last two substances are within 1.5-fold of each other. Still for that read-out and setting: the result for “LT(F3f)EHY(Hexa)AQ(F3f)TSK [peptide 23a]” reads 15 nM; that for “LT(F3f)EHY(Hexa)AQ(F5f)TSK [peptide 24a]”, 16 nM. On the same count and under the same terms, the result for LT(F3f)EHY(Hexa)AQ(Ff)TSK [peptide 14a] reads 3.2 nM; that for “LT(F3f)EHY(Hexa)AQ(Hexa)TSK [peptide 17a]”, 6.3 nM; that for LT(F3f)EHYWAQ(Cha)TSK [peptide 20a], 8.9 nM. LT(Ff)EHY(Hexa)AQ(Cba)TSK [peptide 13a] returned a Kd of 2.9 nM. On the same count and under the same terms, the result for LT(Ff)EHY(Hexa)AQ(Cha)TSK [peptide 12a] reads 2.1 nM; that for LT(Ff)EHY(Hexa)AQLTSK [peptide 38a], 58 nM; that for LTFCys(ar)HYWAQLCys(ar)SK [peptide 60a], 24 nM. In the case of LTFEHYWAQFTSK [peptide 5a], the affinity, expressed as Kd, was 39 ± 0.5 nM. This Kd is about 1.6-fold higher than that of the substance before. On the same count and under the same terms, the result for LTFPHFWAELTSK [peptide 4a] reads 96 ± 2 nM.

For LTFPHYWAELTSK [peptide 3a], the affinity, expressed as Kd, was 86 ± 2 nM. Still for that read-out and setting: the result for LTFQHFWAELTSK [peptide 1a] reads 45 nM; that for LTFQHYWAELTSK [peptide 2a], 59 ± 1 nM.

A further assay has as its target MDM2 (Homo sapiens, UniProt Q00987). Put plainly: Kd MDM2 (nM).
Conditions: not given
Regarding “Ac- Leu Thr F2f Glu His Tyr Hexa Ala Gln Cba Thr Ser Lys -NH2 [(SEQ ID NO: 172) | 10b]”, the dissociation constant (Kd) amounted to 0.8 nM. Consider “Ac- Leu Thr F2f Glu His Tyr Trp Ala Gln Cba Thr Ser Lys -NH2 [(SEQ ID NO: 173) | 11b]”, for which the affinity, expressed as Kd, was 1 nM.

Turning to “Bio-(PEG)4- Leu Thr Dmf Glu His Tyr CF3f Ala Gln Dmf Thr Ser Lys -NH2 [(SEQ ID NO: 100) | 29a]”, the Kd is over 800 nM.

“Bio-(PEG)4- Leu Thr F2f Glu His Tyr Hexa Ala Gln F3f Thr Ser Lys -NH2 [(SEQ ID NO: 19) | 18a]” returned a Kd of 7.6 nM.

As to “Bio-(PEG)4- Leu Thr F2f Glu His Tyr Hexa Ala Gln Ff Thr Ser Lys -NH2 [(SEQ ID NO: 16) | 15a]”, the Kd was 3.8 nM. Still for that read-out and setting: the result for “Bio-(PEG)4- Leu Thr F2f Glu His Tyr Napa Ala Gln Cba Thr Ser Lys -NH2 [(SEQ ID NO: 28) | 27a]” reads 24 nM; that for “Bio-(PEG)4- Leu Thr F2f Glu His Tyr Napa Ala Gln Ff Thr Ser Lys -NH2 [(SEQ ID NO: 29) | 28a]”, 83 nM. Substance “Bio-(PEG)4- Leu Thr F2f Glu His Tyr Trp Ala Gln Hexa Thr Ser Lys -NH2 [(SEQ ID NO: 20) | 19a]” displayed a Kd of 8 nM. The same measure, in the same setting: the result for “Bio-(PEG)4- Leu Thr F3f Glu His Tyr Hexa Ala Gln F3f Thr Ser Lys -NH2 [(SEQ ID NO: 24) | 23a]” reads 15 nM; that for “Bio-(PEG)4- Leu Thr F3f Glu His Tyr Hexa Ala Gln Ff Thr Ser Lys -NH2 [(SEQ ID NO: 15) | 14a]”, 3.2 nM; that for “Bio-(PEG)4- Leu Thr F3f Glu His Tyr Hexa Ala Gln Hexa Thr Ser Lys -NH2 [(SEQ ID NO: 18) | 17a]”, 6.3 nM.
